Target: T1, Interstitial collagenase (Homo sapiens, UniProt P03956)
T1 sequence (P03956 whole entry): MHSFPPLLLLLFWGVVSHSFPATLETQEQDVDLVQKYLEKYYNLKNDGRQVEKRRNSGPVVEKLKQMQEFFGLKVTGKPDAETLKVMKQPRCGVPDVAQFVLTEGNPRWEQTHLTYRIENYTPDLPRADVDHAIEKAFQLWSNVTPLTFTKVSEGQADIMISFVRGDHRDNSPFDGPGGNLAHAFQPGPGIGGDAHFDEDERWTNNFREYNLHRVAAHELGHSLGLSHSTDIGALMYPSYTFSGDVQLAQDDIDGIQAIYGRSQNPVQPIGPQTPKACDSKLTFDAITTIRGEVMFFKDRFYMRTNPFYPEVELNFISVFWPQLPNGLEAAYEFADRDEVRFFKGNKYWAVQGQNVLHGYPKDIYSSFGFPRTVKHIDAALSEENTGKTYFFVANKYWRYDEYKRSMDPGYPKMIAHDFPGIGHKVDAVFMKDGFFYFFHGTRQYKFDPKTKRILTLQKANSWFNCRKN
Assay: In vitro inhibition of human Matrix metalloprotease-1.

`COc1ccc(-c2ccc(OCC(CN3C(=O)N(C)C(C)(C)C3=O)N(O)C=O)cc2)cc1` (stereo unspecified) gave an IC50 of 440 nM.

Source: ChEMBL document CHEMBL1134096, “Discovery and characterization of the potent, selective and orally bioavailable MMP inhibitor ABT-770” (Bioorg Med Chem Lett, 2001)
